According to patent EP4831184A1, “SALT OF NITROGEN HETEROARYL COMPOUND, CRYSTAL FORM OF SAID SALT, PREPARATION METHOD THEREFOR, AND USE THEREOF” (dated 2026):

Tests used:
[1] = Crystal form stability test (light exposure, high temperature, high humidity; open containers); conditions: for Crystal form after standing, High humidity / Crystal form after standing, 60 °C / Crystal form after standing, Light exposure: open container, 30 days; for Crystal form after standing, High humidity: 25 °C, RH 90% ± 5%; for Crystal form after standing, 60 °C: high temperature 60 °C; for Crystal form after standing, Light exposure: light exposure 5000 Lux ± 500 Lux
Experimental: (§1) Samples of the crystal form A of the compound represented by formula (I), the crystal form B of the compound represented by formula (I), the crystal form I of the p-toluenesulfonate of the compound represented by formula (I), and the crystal form I of the hydrochloride of the compound represented by formula (I) were separately spread out and left to stand in open containers, and subjected to 10-day and 30-day stability tests under light exposure (5000 Lux ± 500 Lux), high temperature (60 °C), and high humidity (25 °C, RH 90% ± 5%) conditions to investigate the stability of the crystal forms. Table 5. Comparison of stability data of crystal forms after standing for 30 days under different conditions

[2] = Pharmacokinetic experiment, single oral gavage; conditions: Beagle dogs
Excerpt: Number of animals: 6 Beagle dogs per group, half male and half female.
Grouping method: Dogs were randomly grouped by sex based on body weight.
(§2) A sample of the crystal form B of the compound represented by formula (I) was taken and added to a mixed solution of Solutol HS 15 and 20% HP-β-CD, and the resulting mixture was well mixed by ultrasonication and vortexing to give the desired reagent. Post-preparation storage condition and shelf life: the prepared reagent could be temporarily stored in a refrigerator at 2-8 °C for 3 h.
A sample of the crystal form I of the p-toluenesulfonate of the compound represented by formula (I) was taken and added to a mixed solution of Solutol HS 15 and 20% HP-β-CD, and the resulting mixture was well mixed by ultrasonication and vortexing to give the desired reagent.
as §2, with “I of the p-toluenesulfonate” for “B”, “SBE-β-CD” for “Solutol HS 15”, “50 mM sodium acetate (pH 4.61),” for “20% HP-β-CD,”
Administration dose: 10 mg/kg, calculated based on the content of the compound represented by formula (I).
Administration concentration: 2 mg/mL.
Administration volume: 5 mL/kg.
Administration frequency: single administration.
Administration route: oral gavage.
Sampling time points: before administration, and 15 min (± 1 min), 30 min (± 1 min), 1 h (± 2 min), 2 h (± 2 min), 4 h (± 5 min), 8 h (± 5 min), and 24 h (± 20 min) after administration.
Sampling animals: all surviving dogs in each group.
Sampling site: forelimb vein or other suitable veins.
Sampling amount: about 0.5 mL, with heparin sodium as an anticoagulant.
Blood sample treatment: The collected blood samples were each added into a centrifuge tube containing the anticoagulant and mixed well with the anticoagulant by gentle shaking. The whole blood samples were placed in an ice box protected from light before centrifugation. They were then centrifuged at 1800 rpm for 10 min at 2-8 °C within 2 h to separate plasma. The plasma was divided into 2 aliquots and stored at -66 °C or below until analysis.
Data processing and analysis: Pharmacokinetic parameters including Cmax, Tmax, AUClast, and AUC0-∞ were calculated using a non-compartmental model.
Tmax and Cmax were obtained from measured values.
AUC0-t was calculated using the linear trapezoidal method, where t represents the time of the last quantifiable plasma concentration; AUC0−∞ = AUC0−t + Ct /λz , [formula] where Ct represents the plasma concentration at the last time point with a quantifiable concentration, and λz represents the terminal elimination rate constant.

[3] = Stability of related substances (light exposure, high temperature, high humidity; open containers); conditions: for stability of related substances, High humidity: high humidity 25 °C, RH 90% ± 5%; for stability of related substances, High humidity / stability of related substances, 60 °C / stability of related substances, Light exposure: open container; for stability of related substances, 60 °C: high temperature 60 °C; for stability of related substances, Light exposure: light exposure 5000 Lux ± 500 Lux
Experimental: as §1, with “related substances.” for “the crystal forms.”, “6.” for “5.”, “related substances” for “crystal forms after standing for 30 days”

[4] = Saturation solubility tests in water and at different pH values
Excerpt: Samples of the prepared crystal form A of the compound represented by formula (I), the prepared crystal form B of the compound represented by formula (I), the crystal form I of the p-toluenesulfonate of the compound represented by formula (I) obtained according to Example 1, and the crystal form I of the hydrochloride of the compound represented by formula (I) obtained according to Example 2 were subjected to saturation solubility tests in water and at different pH values. […] Table 7. Solubility data (mg/mL) under different conditions

[5] = Salt formation / salt crystal form screening with acids and solvents
Excerpt: Following the procedures in Example 1 of the present application, the compound represented by formula (I) was mixed with the acids and solvents shown in the table below, yet no crystal forms of salts were obtained.

[6] = Crystal form stability under grinding, heating and tableting treatments; conditions: for crystal form stability: grinding, heating, and tableting treatments
Excerpt: The crystal form I of the p-toluenesulfonate of the compound represented by formula (I) prepared according to the method of Example 1 was subjected to grinding, heating, and tableting treatments. […] Table 8. Stability study of crystal form I of p-toluenesulfonate

[7] = Vehicle Solutol HS 15 and 20% HP-β-CD
[8] = Solvent Acetone, Acid/base (mol/mol) 1.1
[9] = 10 mg/kg single administration, compared with the free base
[10] = Vehicle SBE-β-CD and 50 mM sodium acetate

Row | Crystal form after standing, High humidity [1] | Crystal form after standing, 60 °C [1] | Crystal form after standing, Light exposure [1] | stability of related substances, High humidity ([3]; 0 days) [%] | stability of related substances, 60 °C ([3]; 0 days) [%] | stability of related substances, Light exposure ([3]; 0 days) [%] | stability of related substances, High humidity ([3]; 10 days) [%] | stability of related substances, 60 °C ([3]; 10 days) [%] | stability of related substances, Light exposure ([3]; 10 days) [%] | stability of related substances, High humidity ([3]; 30 days) [%] | stability of related substances, 60 °C ([3]; 30 days) [%] | stability of related substances, Light exposure ([3]; 30 days) [%] | Compound | Results (salt formation of compound represented by formula (I) with acid) [5, 8] | also measured
1 | Crystal form B | Crystal form B | Crystal form B | 99.85 | 99.85 | 99.85 | 99.85 | 99.85 | 98.54 | 99.85 | 99.78 | 95.66 | CN(C)Cc1ccc(-c2cnc(NCc3c(F)ccc4c3CCO4)n3cnnc23)c2ncnn12 [Crystal form B of compound represented by formula (I)] |  | Cmax [2, 7]: 378 ± 359 ng/mL; Tmax [2, 7]: 78 ± 78 min; Solubility ([4]; Water, saturation solubility): 10 µg/mL; Solubility ([4]; pH 1.0, saturation solubility): 290 µg/mL; Solubility ([4]; pH 4.5, saturation solubility): 1850 µg/mL; Solubility ([4]; pH 6.8, saturation solubility): 20 µg/mL
2 |  |  |  |  |  |  |  |  |  |  |  |  | O=P(O)(O)O |  | Results (salt formation of compound represented by formula (I) with acid) ([5]; Solvent Ethanol, Acid/base (mol/mol) 1.1): The obtained crystal form product exhibited high hygroscopicity
3 |  |  |  |  |  |  |  |  |  |  |  |  | O=C(O)CC(O)(CC(=O)O)C(=O)O |  | Results (salt formation of compound represented by formula (I) with acid) ([5]; Solvent Ethanol, Acid/base (mol/mol) 2.1): The obtained crystal form product was poor in crystalline state.
4 | Crystal form I of hydrochloride | Crystal form I of hydrochloride | Crystal form I of hydrochloride | 99.84 | 99.84 | 99.84 | 98.84 | 99.51 | 99.60 | 98.80 | 99.32 | 98.61 | CN(C)Cc1ccc(-c2cnc(NCc3c(F)ccc4c3CCO4)n3cnnc23)c2ncnn12 [Crystal form I of hydrochloride of compound represented by f] |  | 
5 | Mixed crystal | Crystal form A | Crystal form A | 99.85 | 99.85 | 99.85 | 99.83 | 99.82 | 99.11 | 99.84 | 99.70 | 98.16 | CN(C)Cc1ccc(-c2cnc(NCc3c(F)ccc4c3CCO4)n3cnnc23)c2ncnn12 [Crystal form A of compound represented by formula (I)] |  | crystal form stability ([1]; high humidity conditions): poor stability; Solubility ([4]; Water, saturation solubility): 20 µg/mL; Solubility ([4]; pH 1.0, saturation solubility): 290 µg/mL; Solubility ([4]; pH 4.5, saturation solubility): 1320 µg/mL; Solubility ([4]; pH 6.8, saturation solubility): 10 µg/mL
6 |  |  |  |  |  |  |  |  |  |  |  |  | C[C@H](O)C(=O)O | The crystal form A of the compound represented by formula (I) was obtained, and no salt was formed | 
7 |  |  |  |  |  |  |  |  |  |  |  |  | O=S(=O)(O)O | The obtained crystal form product exhibited high hygroscopicity | Results (salt formation of compound represented by formula (I) with acid) ([5]; Solvent Ethanol, Acid/base (mol/mol) 0.5): The crystal form A of the compound represented by formula (I) was obtained, and no salt was formed
8 | Crystal form I of p-toluenesulfonate | Crystal form I of p-toluenesulfonate | Crystal form I of p-toluenesulfonate | 99.44 | 99.44 | 99.44 | 99.44 | 99.44 | 99.08 | 99.44 | 99.42 | 98.95 | CN(C)Cc1ccc(-c2cnc(NCc3c(F)ccc4c3CCO4)n3cnnc23)c2ncnn12 [Crystal form I of p-toluenesulfonate of compound represented] |  | AUC [2, 9]: higher; Cmax [2, 9]: higher; exposure [2, 9]: greater; time to peak in vivo [2, 9]: shorter; AUC0-∞ [2, 10]: 2720 ± 1170 ng·h/mL; AUClast [2, 10]: 2680 ± 1150 ng·h/mL; Cmax [2, 10]: 1080 ± 636 ng/mL; Tmax [2, 10]: 32.4 ± 15 min; AUC0-∞ [2, 7]: 2220 ± 691 ng·h/mL; AUClast [2, 7]: 2190 ± 689 ng·h/mL; Cmax [2, 7]: 448 ± 123 ng/mL; Tmax [2, 7]: 30 ± 0 min; Crystal form ([6]; after Grinding for 10 min in a mortar): Crystal form I of p-toluenesulfonate; Crystal form ([6]; after Heating at 80 °C for 3 h): Crystal form I of p-toluenesulfonate; Crystal form ([6]; after Tableting): Crystal form I of p-toluenesulfonate; crystal form stability ([6]; listed as crystal form I of the p-toluenesulfonate of the compound of formula (I)): good stability; crystal form stability ([6]; listed as crystal form I of the p-toluenesulfonate of the compound represented by formula): stable; stability of related substances ([3]; high temperature conditions (60 °C), comparison with hydrochloride): superior to that of the crystal form I of the hydrochloride
9 |  |  |  |  |  |  |  |  |  |  |  |  | CC(=O)O | The crystal form A of the compound represented by formula (I) was obtained, and no salt was formed | 

Counter-ions that a name gives are not always drawn.
